# scFv variants of Ab-95 (light chain) against a SARS-CoV-2 spike peptide

Binding partner: SARS-CoV-2 spike HR2 peptide, sequence PDVDLGDISGINAS.

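The parent was found by panning a naive human phage display library on the peptide. AAYL52 was designed without a model: most single CDR substitutions and a random sample of double and triple ones. In AlphaSeq, yeast of one mating type display the scFv and yeast of the other type display the target. The frequency of each diploid, read from paired DNA barcodes, reflects how well the two displayed proteins bind. A regression on co-assayed BCL2-family reference pairs converts the normalised counts of each replicate to an apparent Kd. Mating was done three times.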

Parent scFv Ab-95: VH joined to VL by a (GGGGS)3 linker. Changes lie in the light chain CDRs alone.
VH: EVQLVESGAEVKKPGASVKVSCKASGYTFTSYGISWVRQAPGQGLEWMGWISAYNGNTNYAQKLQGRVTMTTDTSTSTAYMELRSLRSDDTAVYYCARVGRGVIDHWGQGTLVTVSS
VL: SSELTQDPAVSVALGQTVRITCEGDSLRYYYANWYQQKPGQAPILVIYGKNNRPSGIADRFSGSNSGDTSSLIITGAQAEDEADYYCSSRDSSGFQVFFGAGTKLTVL

The parent's light chain CDRs are EGDSLRYYYAN, GKNNRPS, SSRDSSGFQVF; each variant's own CDRs replace them letter for letter.
Values are log10 of the apparent Kd in nM; lower means stronger binding.
"ND" means that the variant was in the library but no mating with the target was seen in that replicate; the authors take this as a sign of poor binding, and no number exists.
Parent in this assay: reference entry 2.31, copy in this library 2.25.

CDR-L1	CDR-L2	CDR-L3	log10 Kd (nM) by replicate	empty controls
EGDSLRYYYAN	GKNNRPS	YSRDSVGFQFF	ND / ND / ND	1/9 (3.64)
EGDSMRYYYAV	GKNNRPS	SSRDSSGHQVF	ND / ND / ND	2/9 (4.51)
EGDSLRYYYAN	GNNNRPS	SSRDLSTFQVF	ND / 3.01 / 2.08	2/9 (3.26)
EGDSLRYYYAN	GKNNREH	SSRDSSGFQVC	2.98 / 2.88 / 2.47	1/9 (4.40)
EGDSLRYTYAN	GKNHGPS	SSRDSSGFQVF	2.90 / 3.12 / 2.60	3/9 (4.45)
EGSVLQYYYAN	GKNNRPS	SSRDSSGFQVF	3.07 / ND / ND	2/9 (3.66)
EGDSLPYYYAN	GKNNRPS	SSRDNSQFQVF	2.01 / 2.26 / 1.47	1/9 (3.29)
EGDSLWYYYAN	DKNNRPS	SSRDSSTFQVF	ND / 3.44 / ND	1/9 (3.31)
EGRSLRYYYAN	GKNNKPS	YSRDSSGFQVF	3.17 / 3.14 / 2.80	4/9 (3.76)
EGDSLRYYYAI	GKNNRGS	SSRDSSGLQVF	4.83 / ND / 4.76	2/9 (3.71)
EGDSLRYYYAN	GHNNRPS	SSRDHSGLQVF	2.99 / 3.74 / 4.23	2/9 (3.75)
EGDSLRYYYAN	GKNNRPS	SSHDSSGQQQF	2.65 / 2.67 / 1.96	1/9 (3.88)
EGDSLRYYYAN	GKNNRYS	SSRDSSGFHVF	2.55 / ND / 3.04	0/9
EGDSLRYYYAN	GKNNRWS	SSRDSSNFQVA	3.50 / 3.83 / ND	1/9 (4.15)
EGQSLRYYYAN	GKNNRPS	SSRDSSGFQYY	2.74 / 2.40 / 2.40	2/9 (3.22)
EGDSLRSYYAC	GKNNRPS	SARDSSGFQVF	3.03 / 3.63 / 2.98	5/9 (4.07)
EGNSLRYYYMN	GKNNRPS	SSRDSSGFNVF	ND / ND / ND	3/9 (3.85)
EGDSLRYYLAN	GNNNRPS	SSRDNSGFQVF	2.07 / 1.71 / 1.90	0/9
EGDSLRYYYAN	CKNNRRS	SSRDSSKFQVF	ND / ND / ND	2/9 (4.73)
EGDNLRYYYAN	GKSNRPS	SSRDYSGFQVF	3.94 / 3.08 / 2.96	3/9 (4.02)
EGDSYRYYYAN	GKNNRPS	SSRISSGYQVF	ND / ND / ND	1/9 (3.22)
EGDSLKYYYAN	GINNRPS	SSRDSSGFQHF	4.08 / 3.50 / 2.79	6/9 (3.87)
EGDVLIYYYAN	GKNSRPS	SSRDSSGFQVF	3.88 / ND / ND	1/9 (2.94)
EGDSLRYYTAN	GKNNRPS	SSRDSSGFQYF	3.35 / 3.56 / 3.00	3/9 (4.19)
MGDSLRYYYAN	HKNNRPS	YSRDSSGFQVF	ND / 4.32 / ND	0/9
EGDSLRYYLAN	GKNLRPS	SSRCSSGFQVF	2.74 / 3.31 / 3.04	3/9 (4.29)
ENDSLRYYYAN	GKNNRPS	SSCDSSSFQVF	ND / 5.38 / ND	3/9 (4.40)
EGDSLRYYYAN	GKNNMPS	SSRVSSGDQVF	4.06 / 3.56 / 4.22	1/9 (4.08)
EGDSLRYYYLN	GKNNRPS	SSADSSFFQVF	ND / ND / ND	5/9 (4.50)
EGDSLRYYYAN	KQNNRPS	SSRDSSGMQVF	3.67 / ND / 3.41	1/9 (4.25)
EGDSRRYYYAY	GKNNRPS	SSRDSSGFQVF	3.75 / ND / 3.17	0/9
EGDSLRYYYAN	GKNNRPS	SSRPSSYVQVF	3.42 / 3.22 / 4.25	3/9 (3.94)
EGDSLRYYYAN	GKNNRPS	GSRDSSGKYVF	4.31 / 4.29 / 4.46	1/9 (4.78)
EPDSLFYWYAN	GKNNRPS	SSRDSSGFQVF	2.65 / 3.05 / 2.71	5/9 (4.02)
EGDFPRHYYAN	GKNNRPS	SSRDSSGFQVF	3.07 / 3.48 / 3.99	1/9 (3.90)
EGDSERYYYAN	GKNNRPS	SMRDSSLFQVF	ND / 4.04 / ND	0/9
IGDSLIYYYAN	GQNNRPS	SSRDSSGFQVF	2.80 / 2.99 / 1.86	2/9 (3.42)

The first 3 variants above that were never detected:

CDR-L1	CDR-L2	CDR-L3	log10 Kd (nM) by replicate	empty controls
EGDSLRYYYAN	GKNNRPS	YSRDSVGFQFF	ND / ND / ND	1/9 (3.64)
EGDSMRYYYAV	GKNNRPS	SSRDSSGHQVF	ND / ND / ND	2/9 (4.51)
EGNSLRYYYMN	GKNNRPS	SSRDSSGFNVF	ND / ND / ND	3/9 (3.85)

Empty control strains, which show no peptide, gave a signal in 28% of pairings with library AAYL52; the median was 3.91 and 95% of these signals were weaker than 2.90. No background was subtracted. The control count says in how many pairings with the empty strains this scFv gave a signal, with their mean in brackets.

From the AlphaSeq antibody data of Engelhart et al. 2022 (doi:10.1038/s41597-022-01779-4), copy in the FLAb collection.